Test results from patent publication US7842715B2, “N-benzoyl- and N-benzylpyrrolidin-3-ylamines as histamine-3 antagonists” (Wyeth LLC, priority 2006, dated 2010).

Sequences of proteins named here, by UniProt entry; tags and fusion partners are left off.
UniProt Q9Y5N1, whole entry: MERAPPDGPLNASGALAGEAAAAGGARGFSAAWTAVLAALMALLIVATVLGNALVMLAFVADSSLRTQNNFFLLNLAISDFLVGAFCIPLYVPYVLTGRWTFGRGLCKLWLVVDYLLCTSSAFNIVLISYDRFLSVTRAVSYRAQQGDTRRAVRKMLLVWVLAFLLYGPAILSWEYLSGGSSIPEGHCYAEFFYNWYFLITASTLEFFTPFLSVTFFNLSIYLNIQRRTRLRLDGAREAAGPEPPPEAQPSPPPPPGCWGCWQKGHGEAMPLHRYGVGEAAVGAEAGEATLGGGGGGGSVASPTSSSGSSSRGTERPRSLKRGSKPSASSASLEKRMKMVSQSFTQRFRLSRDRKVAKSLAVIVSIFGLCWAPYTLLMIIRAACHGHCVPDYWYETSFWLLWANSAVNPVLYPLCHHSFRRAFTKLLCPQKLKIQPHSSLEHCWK

Molecular target: Histamine Receptor H3 (Homo sapiens, UniProt Q9Y5N1)
Assay: Cyclic AMP assay for histamine receptor H3 antagonism activity
Details: read-out: cAMP Kb; stable H3 cells; histamine plus 10 μM forskolin; 30 min at 30° C.
Procedure: Cyclic AMP Assay for Histamine Receptor H3 Antagonism Activity.
Stable H3 cells are maintained in tissue culture flask in DMEM with high glucose, 10% FBS, 1× pen/strep, 500 ug/ml GY18, until experiment. Culture media is removed and cells are washed twice with PBS w/ Ca++ and Mg++ plus 500 μM IBMX. Cells are then detached by tapping on the side of the flask and resuspend in the same buffer. Two thousand cells/well are incubated with […] histamine plus 10 μM forskolin plus various concentrations of compounds in a total volume of 30 μL in 96 well plates for 30 min at 30° C. Final test compound concentrations range from 10^-4M to 10-9.5M at full log dilutions. Cyclic AMP levels are measured using HitHunter cAMP kit from Discoverx, cat# 900041 according to manufacturer's instruction. Chemiluminescence signals are detected using Top Count (Packard). Cyclic AMP levels in control cells receiving 10 μM forskolin plus 100 nM histamine are considered 0%, and in cells receiving 10 uM forskolin plus 100 nM histamine plus 1 μM clobenpropit are considered 100%. Data are expressed as % control and analyzed using Prizm soft ware. The Kb values are calculated using the following equation, KB=EC50 or IC50/[1+(ligand/Kd)].

Q: Which Kb does the source give for CN(C)C1CCN(C(=O)c2ccc(Nc3ncnc4ccsc34)cc2)C1 (stereo not shown) here?
A: 10.8 nM
